“And” between values parts separate entries of the source, which are not always exact repeats. Equal entries are not always repeated. Only a part is listed here, and it is no random draw. Results filed as inconclusive are left out. The source made the active and inactive calls. Calls come from the whole dose curve; as a rule, active = well fitted cell-killing curve with a large enough effect in the repeat runs; inconclusive = weak or mixed curves, or effect the other way; inactive = no such curve, though single readings can be large or run the other way.
Assay: qHTS assay to identify small molecule antagonists of the thyroid receptor (TR) signaling pathway - cell viability counter screen (AID 743064); note: nearly all actives have a fitted effect of over 50% in size
Conditions: GH3.TRE-Luc viability, CellTiter-Fluor, 24 h; series mostly up to 70.3 µM; activity change, negative = cytotoxic: at the top concentration
From the text: National Center for Advancing Translational Sciences [NCATS]
NIH Chemical Genomics Center [NCGC]
U.S. Environmental Protection Agency [EPA]
National Institutes of Environmental Health Sciences [NIEHS]
National Toxicology Program [NTP]
U.S. Food and Drug Administration [FDA]
Thyroid receptor (TR), a nuclear hormone receptor, plays an important role in development, proliferation, differentiation, metabolism, brain function, and cardiovascular system. […] To profile the Tox21 10K compound library in TR signaling, a cell-based GH3-TRE-Luc assay (GH3.TRE-Luc cell line, developed by the laboratory of Dr. Albertinka J. Murk, Wageningen University) was used to measure the inhibition of TR. GH3 (rat pituitary tumor) cells stably expressing a TR activity sensor consisting of two TR response elements and a luciferase reporter gene. The cytotoxicity of the Tox21 compound library against the GH3.TRE-Luc cell line was tested in parallel by measuring the cell viability using CellTiter-Fluor assay (Promega, Madison, WI) in the same wells.
Tox21 Assay Protocol Summary:
GH3.TRE-Luc cells were dispensed at 1500 cells/4 uL/well into 1536-well white solid bottom plates using a Multidrop Combi dispenser (Thermo Fisher Scientific Inc., Waltham, MA). After the assay plates were incubated at 37 C for 4 hours, 23 nL of library compound or DMSO controls was transferred to the assay plates by a pintool station (Kalypsys, San Diego, CA), followed by addition of 1 ul of T3 (1 nM, final concentration in the wells) to stimulate TR transactivation. The assay plates were incubated at 37 C for 23.5 h, and then 1 uL of CellTiter-Fluor reagent (Promega, Madision, WI) of measuring cytotoxicity was added to each well using a Bioraptr Flying Reagent Dispenser (FRD) workstation (Beckman Coulter, Indianapolis, IN, USA). The plates were incubated at 37C and 5% CO2 for additional 30 min, and fluorescence intensity was measured by a ViewLux plate reader (PerkinElmer, Shelton, CT).
% is set by controls: 0 for no effect and ±100 for the full control effect; potency is the fitted concentration of half-maximal effect.

Q: For COP(=S)(Cl)OC, which “activity change, negative = cytotoxic” value is on record?
A: inactive: 0.347% [at 95 µM]

Q: With CN(C(=O)Cc1cccc2occc12)[C@H]1CC[C@@]2(CCCO2)C[C@@H]1N1CCCC1 as the compound, how does the “activity change, negative = cytotoxic” value read?
A: inactive: -23.9%

Q: For O=C1C2CC=CCC2C(=O)N1SC(Cl)(Cl)C(Cl)Cl (centres undefined), which Potency is on record?
A: active: 1.74 µM and active: 217 nM

Q: With CN(N=O)C(=N)N[N+](=O)[O-] as the compound, how does the “activity change, negative = cytotoxic” value read?
A: inactive: -5.64%

Q: Which Potency does the source give for NC(=O)Nc1ccc([As](=O)(O)O)cc1 here?
A: inactive

Q: For ClP(Cl)c1ccccc1, which “activity change, negative = cytotoxic” value is on record?
A: inactive: -0.636%

Q: Which “activity change, negative = cytotoxic” value does the source give for O=P(Cl)(Cl)c1ccccc1 here?
A: inactive: 4.35%

Q: Which “activity change, negative = cytotoxic” value does the source give for CCOC(=O)Cl here?
A: inactive: 5.94%

Q: With O=P(Cl)(Oc1ccccc1)Oc1ccccc1 as the compound, how does the “activity change, negative = cytotoxic” value read?
A: inactive: 0.552%

Q: For O=C(OC1CN2CCC1CC2)c1ccccc1 (centres undefined), which “activity change, negative = cytotoxic” value is on record?
A: inactive: 15.7%

Q: For O=[N+]([O-])c1ccc(S(=O)(=O)O)c([N+](=O)[O-])c1, which “activity change, negative = cytotoxic” value is on record?
A: inactive: -5.27% [at 95 µM]

Q: With CCNC(C)Cc1ccc2c(c1)OCO2 (centres undefined) as the compound, how does the “activity change, negative = cytotoxic” value read?
A: inactive: -21% [at 95 µM]

Q: For O=[P+](Oc1ccccc1)Oc1ccccc1, which “activity change, negative = cytotoxic” value is on record?
A: inactive: 18.2%

Q: Which “activity change, negative = cytotoxic” value does the source give for CC(C)OP(=S)(OC(C)C)SCCNS(=O)(=O)c1ccccc1 here?
A: inactive: -3.85%

Q: Which Potency does the source give for CCCCO[P+](=O)OCCCC here?
A: inactive

Q: For CC(C)CCCCCCCOP(OCCCCCCCC(C)C)Oc1ccccc1, which “activity change, negative = cytotoxic” value is on record?
A: inactive: -1.02%

Q: With CCCCC(CC)CO[P+](=O)OCC(CC)CCCC (centres undefined) as the compound, how does the “activity change, negative = cytotoxic” value read?
A: inactive: -3.41%

Q: With O=[p+]1oc2ccccc2c2ccccc21 (centres undefined) as the compound, how does the “activity change, negative = cytotoxic” value read?
A: inactive: 0.466%

Q: With O=[As]c1ccccc1 (centres undefined) as the compound, how does the Potency read?
A: active: 137 nM

Reference: PubChem BioAssay (Tox21)
